The values that follow come from EP3411040B1, “SMALL MOLECULES FOR MOUSE SATELLITE CELL PROLIFERATION” (dated 2026).

In one experiment the test system is human satellite cells. The following applies: 1nM, relative to the DMSO control; FIG. 38.
The test system of experiment [1] is satellite cells. Nature of the experiment: Satellite cell proliferation screen and dose response (image-based cell count).
In experiment [2] the test system is satellite cells. Description: LINCS library screen for satellite cell proliferation (Hoechst 33342 high content imaging). The following applies: determined in dose response; Tg:Pax7-nGFP satellite cells, 4 days.
For the next experiment, the system named is SMPs. Nature of the experiment: Proliferation of SMPs in combination with bFGF. The settings on record: compound refreshed daily then removed; fixation on Day 4.
The next experiment has as its system myoblast. The settings on record: differentiation media comprising 5% horse serum; FIG. 39.

`CC(C)(C)c1cc(NC(=O)Nc2ccc(-c3cn4c(n3)sc3cc(OCCN5CCOCC5)ccc34)cc2)no1`: the “increase of human satellite cells” value with human satellite cells is on record as “more than 2 fold”.

With `CCN(CC)CCNC(=O)c1c(C)[nH]c(/C=C2\C(=O)Nc3ccc(Cl)cc32)c1C`, in the experiment with satellite cells [1] (primary screen session one, hit = greater than one standard deviation over DMSO control), the “Initial hit Conc.” value worked out at 1 µM.

The molecule `CCOc1cc(N2CCC(O)CC2)ccc1Nc1ncc2c(n1)N(C)c1ccccc1C(=O)N2C` showed an Optimal treatment concentration in the experiment with satellite cells [2] of 3 µM.

As to `OC[C@H]1O[C@@H](n2cnc3c(NC4CCCC4)ncnc32)[C@H](O)[C@@H]1O`, the “additive or synergistic action with bFGF on proliferation” value with SMPs is reported as “seen to synergize with bFGF in vitro”. In addition, the “in vitro satellite cell proliferation” value in the experiment with satellite cells [1] (Example 2 screen of approximately 400 compounds, FIG. 35) is on record as “found to increase in vitro satellite cell proliferation”. In the experiment on satellite cells [1] (re-supplied compounds, dose response, 50 cells/well, DMSO 1±0.4), the “proliferation levels versus negative control” value was “effective and produced proliferation levels much greater than that seen in the negative control”. For the same molecule, the myoblast differentiation result in the experiment with myoblast is “drive myoblast differentiation”.
